Measurements reported in patent publication US5334589A, “Quinolone carboxylic acid--metal ion--acid complexes” (Abbott Laboratories, priority 1992, dated 1994).

System: rat tail vein
Conditions: in vivo, iv, 100 mg/kg/day

1-(2,4-difluorophenyl)-6-fluoro-1,4-dihydro-7-(3-methyl-1-piperazinyl)-4-oxo-3-quinoline carboxylic acid HCl--Mg--choline [Example 14]
Normalized Rank: 3.67
Total Rank: 88
